Target: human mGluR2 receptor (Homo sapiens, UniProt Q14416)
Assay: [35S]GTPγS binding assay (PAM assay, membranes from CHO cells transfected with the human mGluR2 receptor)
Conditions: in presence of glutamate at EC20; pEC50 = -log EC50 (mol/L)
Procedure: The [^35S]GTPγS binding assay is a functional membrane-based assay used to study G-protein coupled receptor (GPCR) function whereby incorporation of a non-hydrolysable form of GTP, [^35S]GTPγS (guanosine 5′-triphosphate, labelled with […] ^35S), is measured. The G-protein α subunit catalyzes the exchange of guanosine 5′-diphosphate (GDP) by guanosine triphosphate (GTP) and on activation of the GPCR by an agonist, [^35S]GTPγS, becomes incorporated and cannot be cleaved to continue the exchange cycle (Harper (1998) Current Protocols in Pharmacology 2.6.1-10, John Wiley & Sons, Inc.). […] Here we describe the use of the [^35S]GTPγS binding assay using membranes from cells transfected with the human mGluR2 receptor and adapted from Schaffhauser et al. ((2003) Molecular Pharmacology 4:798-810) for the detection of the positive allosteric modulation (PAM) properties of the compounds of this invention.
CHO-cells were cultured to pre-confluence and stimulated with 5 mM butyrate for 24 h, prior to washing in PBS, and then collected by scraping in homogenisation buffer (50 mM Tris-HCl buffer, pH 7.4, 4° C.). Cell lysates were homogenized briefly using an ultra-turrax homogenizer. The homogenate was centrifuged at 16,000 RPM (Sorvall RC-5C plus rotor SS-34) for 10 minutes and the supernatant discarded. The pellet was resuspended in 5 mM Tris-HCl, pH 7.4 and centrifuged again (18,000 RPM, 20 min, 4° C.). The final pellet was resuspended in 50 mM Tris-HCl, pH 7.4 and stored at −80° C. in appropriate aliquots before use. Protein concentration was determined by the Bradford method (Bio-Rad, USA) with bovine serum albumin as standard.
Measurement of mGluR2 positive allosteric modulatory activity of test compounds was performed as follows. Test compounds and glutamate were diluted in assay buffer containing 10 mM HEPES acid, 10 mM HEPES salt, pH 7.4, 100 mM NaCl, 3 mM MgCl2 and 10 μM GDP. Human mGlu2 receptor-containing membranes were thawed on ice and diluted in assay buffer supplemented with 14 μg/ml saponin. Membranes were pre-incubated with compound alone or together with a predefined (˜EC20) concentration of glutamate (PAM assay) for 30 min at 30° C. After addition of [^35S]GTPγS (f.c. 0.1 nM) microplates were shaken briefly and further incubated to allow [^35S]GTPγS incorporation on activation (30 minutes, 30° C.). Final assay mixtures contained 7 μg of membrane protein in 10 mM HEPES acid, 10 mM HEPES salt, pH 7.4, 100 mM NaCl, 3 mM MgCl2,10 μM GDP and 10 μg/ml saponin. Total reaction volume was 200 μl. Reactions were terminated by rapid filtration through Unifilter-96 GF/B filter plates (Packard, Meriden, Conn.) using a 96-well Packard filtermate harvester. Filters were washed 6 times with ice-cold 10 mM NaH2PO4/10 mM Na2HPO4, pH 7.4. Filters were then air-dried, and 40 μl of liquid scintillation cocktail (Microscint-O) was added to each well. Membrane-bound radioactivity was counted in a Microplate Scintillation and Luminescence Counter from Packard.
The concentration-response curves of representative compounds of the present invention—obtained in the presence of EC20 of mGluR2 agonist glutamate to determine positive allosteric modulation (PAM)—were generated using the Lexis software interface (developed at J&J). Data were calculated as % of the control glutamate response, defined as the maximal response that is generated upon addition of glutamate alone. Sigmoid concentration-response curves plotting these percentages versus the log concentration of the test compound were analyzed using non-linear regression analysis. The concentration producing half-maximal effect is then calculated as EC50. The pEC50 values below are calculated as the −log EC50 (wherein EC50 is expressed in mol/L). […]

Sequences of proteins named here, by UniProt entry; tags and fusion partners are left off. Residues count along the entry.
UniProt Q14416, 19-872 limits assumed: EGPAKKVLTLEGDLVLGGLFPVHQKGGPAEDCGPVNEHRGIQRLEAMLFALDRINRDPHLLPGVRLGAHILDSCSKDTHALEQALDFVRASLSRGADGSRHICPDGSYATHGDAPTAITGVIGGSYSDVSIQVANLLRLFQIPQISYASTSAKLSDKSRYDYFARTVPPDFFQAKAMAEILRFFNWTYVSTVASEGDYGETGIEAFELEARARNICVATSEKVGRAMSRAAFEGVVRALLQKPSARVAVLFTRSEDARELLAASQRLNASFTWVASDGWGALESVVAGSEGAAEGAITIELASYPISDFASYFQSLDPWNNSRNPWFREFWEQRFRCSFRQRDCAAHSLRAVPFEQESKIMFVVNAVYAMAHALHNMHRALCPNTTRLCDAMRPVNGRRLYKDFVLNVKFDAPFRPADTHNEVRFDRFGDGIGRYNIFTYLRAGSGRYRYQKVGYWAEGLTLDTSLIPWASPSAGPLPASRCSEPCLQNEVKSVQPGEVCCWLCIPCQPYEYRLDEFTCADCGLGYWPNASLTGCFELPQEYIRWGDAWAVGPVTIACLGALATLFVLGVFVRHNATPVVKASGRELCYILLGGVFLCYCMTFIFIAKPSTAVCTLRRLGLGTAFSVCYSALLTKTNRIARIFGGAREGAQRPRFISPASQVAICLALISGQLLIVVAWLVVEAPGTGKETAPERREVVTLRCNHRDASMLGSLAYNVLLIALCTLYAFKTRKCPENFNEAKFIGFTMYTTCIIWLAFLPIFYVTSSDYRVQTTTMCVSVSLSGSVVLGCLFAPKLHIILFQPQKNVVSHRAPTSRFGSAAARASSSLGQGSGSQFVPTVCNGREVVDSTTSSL

Row | Structure (SMILES) | GTPγS-hR2 PAM pEC50
1 | Cc1cc(N2CCOc3cc(-c4ccn5c(CC6CC6)nnc5c4C(F)(F)F)ccc32)ccn1 | 7.50
2 | CCOCc1nnc2c(Cl)c(-c3ccc4c(c3)OCCN4c3ccccn3)ccn12 | 6.48
3 | Clc1c(-c2ccc3c(c2)OCCN3c2cccnc2)ccn2c(CC3CC3)nnc12 | 7.18
4 | Cc1ccc(N2CCOc3cc(-c4ccn5c(CC6CC6)nnc5c4Cl)ccc32)cn1 | 7.92
5 | CCOCc1nnc2c(Cl)c(-c3ccc4c(c3)OCCN4c3ncccn3)ccn12 | 6.13
6 | Clc1c(-c2ccc3c(cnn3Cc3cccnc3)c2)ccn2c(CC3CC3)nnc12 | 6.45
7 | Fc1ccc(-n2ccc3cc(-c4ccn5c(CC6CC6)nnc5c4Cl)cnc32)cc1 | 6.82
8 | FC(F)(F)c1c(-c2ccc3c(c2)OCCN3c2ccncc2)ccn2c(CC3CC3)nnc12 | 7.50
9 | Clc1c(-c2ccc3c(c2)OCCN3c2ccccn2)ccn2c(CC3CC3)nnc12 | 6.86
10 | FC(F)(F)c1c(-c2ccc3c(c2)OCCN3c2cccnc2)ccn2c(CC3CC3)nnc12 | 7.85
